Reference: patent US20160238596

Tested on: Indicator molecule containing the cleavable sequence GPQGIFGQ with a terminal biotin group connected via a polyethylene glycol spacer/linker (intact)

Q: How did the Reader value (lateral flow, CF1522 gold) at 0.5 µg/ml MMP turn out when MMP 13 (Enzo) was run?
A: 6350 reader units
